# Membrane permeability of cyclic peptides

Data: CycPeptMPDB; original report Kelly et al. 2021, doi:10.1021/jacs.0c06115.

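Lipid, pH, incubation time, direction and concentration are not recorded in the data file. The list need not hold all peptides of the study. Peptides that the database sets to -10, its floor, are left out.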

PAMPA is the parallel artificial membrane permeability assay, which has no cells and reads passive diffusion.
Values are log10 P with P in cm/s, so -5 is more permeable than -7.

CC(=O)N1CCC[C@H]1C(=O)N[C@@H]1C(=O)N(C)[C@H](CC(C)C)C(=O)N[C@@H](CC(C)C)C(=O)N[C@@H](CC(C)C)C(=O)N[C@@H](CC(C)C)C(=O)N(C)[C@H](C)C(=O)N[C@@H](CC(C)C)C(=O)N2CCC[C@@H]2C(=O)O[C@@H]1C has PAMPA -7.55 (log10 cm/s). The entry for CC(=O)N1CCC[C@@H]1C(=O)N(C)[C@@H](CC(C)C)C(=O)N[C@@H]1C(=O)N[C@H](CC(C)C)C(=O)N[C@@H](CC(C)C)C(=O)N(C)[C@H](CC(C)C)C(=O)N[C@H](C)C(=O)N[C@@H](CC(C)C)C(=O)N2CCC[C@@H]2C(=O)O[C@@H]1C lists PAMPA -5.31 (log10 cm/s). Listed for CC(=O)N1CCC[C@H]1C(=O)N(C)[C@H](CC(C)C)C(=O)N[C@@H]1C(=O)N[C@H](CC(C)C)C(=O)N(C)[C@H](CC(C)C)C(=O)N(C)[C@@H](CC(C)C)C(=O)N[C@@H](C)C(=O)N[C@H](CC(C)C)C(=O)N2CCC[C@H]2C(=O)O[C@@H]1C: PAMPA -5.94 (log10 cm/s). Listed for CC(=O)N1CCC[C@H]1C(=O)N(C)[C@@H](CC(C)C)C(=O)N[C@@H]1C(=O)N(C)[C@@H](CC(C)C)C(=O)N[C@H](CC(C)C)C(=O)N(C)[C@@H](CC(C)C)C(=O)N(C)[C@H](C)C(=O)N[C@H](CC(C)C)C(=O)N2CCC[C@@H]2C(=O)O[C@@H]1C: PAMPA -5.40 (log10 cm/s). CC(=O)N1CCC[C@H]1C(=O)N(C)[C@@H](CC(C)C)C(=O)N[C@@H]1C(=O)N(C)[C@@H](CC(C)C)C(=O)N[C@@H](CC(C)C)C(=O)N(C)[C@@H](CC(C)C)C(=O)N(C)[C@@H](C)C(=O)N[C@@H](CC(C)C)C(=O)N2CCC[C@H]2C(=O)O[C@@H]1C is reported with PAMPA -5.42 (log10 cm/s). The entry for CC(=O)N1CCC[C@H]1C(=O)N(C)[C@H](CC(C)C)C(=O)N[C@@H]1C(=O)N[C@H](CC(C)C)C(=O)N[C@@H](CC(C)C)C(=O)N[C@@H](CC(C)C)C(=O)N[C@@H](C)C(=O)N[C@H](CC(C)C)C(=O)N2CCC[C@H]2C(=O)O[C@@H]1C lists PAMPA -6.58 (log10 cm/s). CC(=O)N1CCC[C@@H]1C(=O)N(C)[C@@H](CC(C)C)C(=O)N[C@@H]1C(=O)N(C)[C@H](CC(C)C)C(=O)N(C)[C@H](CC(C)C)C(=O)N(C)[C@@H](CC(C)C)C(=O)N(C)[C@@H](C)C(=O)N[C@H](CC(C)C)C(=O)N2CCC[C@H]2C(=O)O[C@@H]1C is reported with PAMPA -5.23 (log10 cm/s). Listed for CC(=O)N1CCC[C@@H]1C(=O)N(C)[C@@H](CC(C)C)C(=O)N[C@@H]1C(=O)N(C)[C@H](CC(C)C)C(=O)N[C@H](CC(C)C)C(=O)N[C@H](CC(C)C)C(=O)N[C@@H](C)C(=O)N[C@@H](CC(C)C)C(=O)N2CCC[C@@H]2C(=O)O[C@@H]1C: PAMPA -6.14 (log10 cm/s).

CC(=O)N1CCC[C@H]1C(=O)N(C)[C@H](CC(C)C)C(=O)N[C@@H]1C(=O)N(C)[C@H](CC(C)C)C(=O)N[C@H](CC(C)C)C(=O)N(C)[C@@H](CC(C)C)C(=O)N(C)[C@@H](C)C(=O)N[C@@H](CC(C)C)C(=O)N2CCC[C@H]2C(=O)O[C@@H]1C has PAMPA -5.25 (log10 cm/s). Listed for CC(=O)N1CCC[C@@H]1C(=O)N(C)[C@@H](CC(C)C)C(=O)N[C@@H]1C(=O)N(C)[C@@H](CC(C)C)C(=O)N(C)[C@H](CC(C)C)C(=O)N(C)[C@@H](CC(C)C)C(=O)N(C)[C@@H](C)C(=O)N[C@H](CC(C)C)C(=O)N2CCC[C@H]2C(=O)O[C@@H]1C: PAMPA -5.29 (log10 cm/s). The entry for CC(=O)N1CCC[C@@H]1C(=O)N(C)[C@H](CC(C)C)C(=O)N[C@@H]1C(=O)N(C)[C@@H](CC(C)C)C(=O)N(C)[C@H](CC(C)C)C(=O)N(C)[C@H](CC(C)C)C(=O)N(C)[C@@H](C)C(=O)N[C@H](CC(C)C)C(=O)N2CCC[C@@H]2C(=O)O[C@@H]1C lists PAMPA -5.49 (log10 cm/s). For CC(=O)N1CCC[C@H]1C(=O)N(C)[C@@H](CC(C)C)C(=O)N[C@@H]1C(=O)N(C)[C@@H](CC(C)C)C(=O)N(C)[C@H](CC(C)C)C(=O)N(C)[C@@H](CC(C)C)C(=O)N[C@@H](C)C(=O)N[C@H](CC(C)C)C(=O)N2CCC[C@H]2C(=O)O[C@@H]1C the data give PAMPA -5.78 (log10 cm/s). CC(=O)N1CCC[C@H]1C(=O)N(C)[C@H](CC(C)C)C(=O)N[C@@H]1C(=O)N[C@@H](CC(C)C)C(=O)N(C)[C@H](CC(C)C)C(=O)N(C)[C@H](CC(C)C)C(=O)N(C)[C@H](C)C(=O)N[C@@H](CC(C)C)C(=O)N2CCC[C@@H]2C(=O)O[C@@H]1C has PAMPA -5.58 (log10 cm/s). CC(=O)N1CCC[C@@H]1C(=O)N(C)[C@@H](CC(C)C)C(=O)N[C@@H]1C(=O)N[C@H](CC(C)C)C(=O)N[C@H](CC(C)C)C(=O)N(C)[C@H](CC(C)C)C(=O)N[C@H](C)C(=O)N[C@H](CC(C)C)C(=O)N2CCC[C@@H]2C(=O)O[C@@H]1C has PAMPA -6.00 (log10 cm/s). CC(=O)N1CCC[C@@H]1C(=O)N(C)[C@H](CC(C)C)C(=O)N[C@@H]1C(=O)N(C)[C@H](CC(C)C)C(=O)N(C)[C@@H](CC(C)C)C(=O)N(C)[C@@H](CC(C)C)C(=O)N(C)[C@@H](C)C(=O)N[C@@H](CC(C)C)C(=O)N2CCC[C@H]2C(=O)O[C@@H]1C is reported with PAMPA -5.79 (log10 cm/s). CC(=O)N1CCC[C@H]1C(=O)N(C)[C@H](CC(C)C)C(=O)N[C@@H]1C(=O)N[C@H](CC(C)C)C(=O)N[C@H](CC(C)C)C(=O)N(C)[C@H](CC(C)C)C(=O)N(C)[C@H](C)C(=O)N[C@@H](CC(C)C)C(=O)N2CCC[C@H]2C(=O)O[C@@H]1C is reported with PAMPA -5.49 (log10 cm/s).

Listed for CC(=O)N1CCC[C@H]1C(=O)N(C)[C@@H](CC(C)C)C(=O)N[C@@H]1C(=O)N(C)[C@H](CC(C)C)C(=O)N(C)[C@@H](CC(C)C)C(=O)N(C)[C@@H](CC(C)C)C(=O)N(C)[C@H](C)C(=O)N[C@@H](CC(C)C)C(=O)N2CCC[C@@H]2C(=O)O[C@@H]1C: PAMPA -5.29 (log10 cm/s). The entry for CC(=O)N1CCC[C@H]1C(=O)N(C)[C@@H](CC(C)C)C(=O)N[C@@H]1C(=O)N[C@@H](CC(C)C)C(=O)N(C)[C@@H](CC(C)C)C(=O)N[C@H](CC(C)C)C(=O)N(C)[C@H](C)C(=O)N[C@@H](CC(C)C)C(=O)N2CCC[C@@H]2C(=O)O[C@@H]1C lists PAMPA -5.02 (log10 cm/s). CC(=O)N1CCC[C@@H]1C(=O)N(C)[C@H](CC(C)C)C(=O)N[C@@H]1C(=O)N[C@@H](CC(C)C)C(=O)N[C@H](CC(C)C)C(=O)N(C)[C@H](CC(C)C)C(=O)N[C@@H](C)C(=O)N[C@H](CC(C)C)C(=O)N2CCC[C@@H]2C(=O)O[C@@H]1C is reported with PAMPA -7.19 (log10 cm/s). Listed for CC(=O)N1CCC[C@@H]1C(=O)N(C)[C@@H](CC(C)C)C(=O)N[C@@H]1C(=O)N(C)[C@@H](CC(C)C)C(=O)N(C)[C@@H](CC(C)C)C(=O)N(C)[C@H](CC(C)C)C(=O)N(C)[C@H](C)C(=O)N[C@@H](CC(C)C)C(=O)N2CCC[C@@H]2C(=O)O[C@@H]1C: PAMPA -5.05 (log10 cm/s). For CC(=O)N1CCC[C@H]1C(=O)N(C)[C@@H](CC(C)C)C(=O)N[C@@H]1C(=O)N(C)[C@H](CC(C)C)C(=O)N(C)[C@H](CC(C)C)C(=O)N[C@H](CC(C)C)C(=O)N(C)[C@@H](C)C(=O)N[C@@H](CC(C)C)C(=O)N2CCC[C@H]2C(=O)O[C@@H]1C the data give PAMPA -5.30 (log10 cm/s). The entry for CC(=O)N1CCC[C@H]1C(=O)N(C)[C@H](CC(C)C)C(=O)N[C@@H]1C(=O)N[C@H](CC(C)C)C(=O)N(C)[C@H](CC(C)C)C(=O)N[C@H](CC(C)C)C(=O)N(C)[C@@H](C)C(=O)N[C@H](CC(C)C)C(=O)N2CCC[C@H]2C(=O)O[C@@H]1C lists PAMPA -5.09 (log10 cm/s). Listed for CC(=O)N1CCC[C@H]1C(=O)N(C)[C@@H](CC(C)C)C(=O)N[C@@H]1C(=O)N(C)[C@H](CC(C)C)C(=O)N(C)[C@@H](CC(C)C)C(=O)N(C)[C@H](CC(C)C)C(=O)N(C)[C@H](C)C(=O)N[C@@H](CC(C)C)C(=O)N2CCC[C@@H]2C(=O)O[C@@H]1C: PAMPA -5.30 (log10 cm/s). CC(=O)N1CCC[C@H]1C(=O)N(C)[C@H](CC(C)C)C(=O)N[C@@H]1C(=O)N[C@H](CC(C)C)C(=O)N(C)[C@@H](CC(C)C)C(=O)N[C@H](CC(C)C)C(=O)N[C@@H](C)C(=O)N[C@H](CC(C)C)C(=O)N2CCC[C@H]2C(=O)O[C@@H]1C is reported with PAMPA -6.15 (log10 cm/s).

The first 2 entries again:

CC(=O)N1CCC[C@H]1C(=O)N[C@@H]1C(=O)N(C)[C@H](CC(C)C)C(=O)N[C@@H](CC(C)C)C(=O)N[C@@H](CC(C)C)C(=O)N[C@@H](CC(C)C)C(=O)N(C)[C@H](C)C(=O)N[C@@H](CC(C)C)C(=O)N2CCC[C@@H]2C(=O)O[C@@H]1C has PAMPA -7.55 (log10 cm/s).
CC(=O)N1CCC[C@@H]1C(=O)N(C)[C@@H](CC(C)C)C(=O)N[C@@H]1C(=O)N[C@H](CC(C)C)C(=O)N[C@@H](CC(C)C)C(=O)N(C)[C@H](CC(C)C)C(=O)N[C@H](C)C(=O)N[C@@H](CC(C)C)C(=O)N2CCC[C@@H]2C(=O)O[C@@H]1C has PAMPA -5.31 (log10 cm/s).